Source: ChEMBL document CHEMBL4385626, “SAR optimization studies on modified salicylamides as a potential treatment for acute myeloid leukemia through inhibition of the CREB pathway” (Bioorg Med Chem Lett, 2019)

Experiment: Clearance in NSG mouse at 2 mg/kg, iv measured after 7 to 150 mins by LC/MS/MS analysis
Assay type: ADME, organism-based
Settings: in vivo
Summary of the method: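 Single IV dose of 2 mg/kg to NSG mice (NOD.Cg-Prkdc scid Il2rg tm1Wjl/SzJ), vehicle DMSO/Kolliphor EL/water (3/5/82). Compound levels measured in plasma at various times after injection. PK parameters derived from the plasma time-concentration profiles.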

CL: 0.0037 mg/ng/mL/h
Structure (SMILES): O=C(Nc1ccc([N+](=O)[O-])cc1Cl)c1cc(Cl)ccc1O [NICLOSAMIDE]
